{"sequences": {"note": "Amino acid sequences for entries named in this document (tags omitted). A change or cut given only in a name is not applied to a line headed by its entry.", "UniProt P15823": "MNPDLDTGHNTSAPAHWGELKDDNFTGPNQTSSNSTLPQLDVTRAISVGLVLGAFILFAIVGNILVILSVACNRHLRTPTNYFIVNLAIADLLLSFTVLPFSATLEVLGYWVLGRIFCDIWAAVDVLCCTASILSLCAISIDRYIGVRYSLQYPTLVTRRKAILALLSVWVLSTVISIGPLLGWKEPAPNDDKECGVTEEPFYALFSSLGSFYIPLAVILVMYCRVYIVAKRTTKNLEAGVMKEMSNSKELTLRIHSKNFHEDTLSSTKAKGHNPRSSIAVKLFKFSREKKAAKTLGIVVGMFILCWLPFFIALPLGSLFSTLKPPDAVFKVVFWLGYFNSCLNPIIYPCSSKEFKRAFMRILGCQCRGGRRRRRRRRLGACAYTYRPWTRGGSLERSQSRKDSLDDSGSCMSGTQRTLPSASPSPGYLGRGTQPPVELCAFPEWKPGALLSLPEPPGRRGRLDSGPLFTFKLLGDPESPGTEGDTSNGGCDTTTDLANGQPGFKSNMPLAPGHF", "UniProt P23944": "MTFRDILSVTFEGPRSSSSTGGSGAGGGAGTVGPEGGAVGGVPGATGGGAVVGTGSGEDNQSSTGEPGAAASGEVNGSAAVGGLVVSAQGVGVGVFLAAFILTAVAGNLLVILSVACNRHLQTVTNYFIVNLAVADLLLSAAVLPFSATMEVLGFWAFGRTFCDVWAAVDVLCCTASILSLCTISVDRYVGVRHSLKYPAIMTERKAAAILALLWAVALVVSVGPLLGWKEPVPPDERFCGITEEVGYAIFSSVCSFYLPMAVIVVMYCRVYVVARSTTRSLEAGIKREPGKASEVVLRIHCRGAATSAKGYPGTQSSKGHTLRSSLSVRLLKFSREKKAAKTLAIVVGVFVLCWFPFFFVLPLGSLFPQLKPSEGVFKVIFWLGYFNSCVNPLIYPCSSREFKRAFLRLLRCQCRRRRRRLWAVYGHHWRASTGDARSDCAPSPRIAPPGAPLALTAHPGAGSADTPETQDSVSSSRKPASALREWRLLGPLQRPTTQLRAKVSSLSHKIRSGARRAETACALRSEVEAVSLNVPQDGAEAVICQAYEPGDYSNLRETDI", "UniProt P43140": "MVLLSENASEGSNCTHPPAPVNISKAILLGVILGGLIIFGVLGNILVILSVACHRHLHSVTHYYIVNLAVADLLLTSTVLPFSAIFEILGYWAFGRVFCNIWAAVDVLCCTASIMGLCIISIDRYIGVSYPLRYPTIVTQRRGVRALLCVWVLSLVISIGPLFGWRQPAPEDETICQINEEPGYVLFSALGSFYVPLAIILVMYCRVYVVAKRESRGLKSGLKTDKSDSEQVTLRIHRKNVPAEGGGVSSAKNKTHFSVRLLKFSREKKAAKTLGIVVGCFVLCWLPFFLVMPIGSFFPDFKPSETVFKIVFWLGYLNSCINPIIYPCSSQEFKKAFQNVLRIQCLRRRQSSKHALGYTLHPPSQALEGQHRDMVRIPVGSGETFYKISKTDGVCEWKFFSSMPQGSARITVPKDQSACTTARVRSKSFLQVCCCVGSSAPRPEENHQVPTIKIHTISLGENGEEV"}, "source": "ChEMBL document CHEMBL1121888", "about": "“(alpha S)-erythro-alpha-methylepinephrine: preparation and stereoselective binding to adrenergic receptors in rat forebrain” (J Med Chem, 1981)", "biological_target": "Adrenergic receptor alpha-1 (Rattus norvegicus, UniProt P15823+P23944+P43140)", "test": "Compound was evaluated for inhibition of [3H]prazosin binding to Alpha-1 adrenergic receptor in rat forebrain homogenate.", "type": "tissue-based, Brain", "data": [{"smiles": "CNC[C@H](O)c1ccc(O)c(O)c1", "note": "[EPINEPHRINE]", "values": [{"measurement": "Ki", "value": 200, "unit": "nM"}]}]}
